The structures appear in SMILES notation. Only a part is listed here, and it is no random draw. Activity calls are given as the source filed them.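 The calls were made as follows: active = z-score above 3 at both the 24 hr and the 30 hr optical density reads; inactive = the rest, inconclusive results apart.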

The nature of the experiment: growth rescue of sdo1-depleted yeast, primary screen, S. cerevisiae, bone marrow failure model (AID 817).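 Also: z-score against mean and SD of all compound wells on the same plate.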 As to conditions: S. cerevisiae sdo1-depleted JHY4D growth rescue, OD600 30 h; at 10 µM; active compounds read high; pdr5 snq2 efflux-pump mutant strain.
For the compound `CCc1nc2c(n1)c1c(non1O)c1c2no[n+]1[O-]`, the z-score is inactive: -0.5. Take `CP(=O)(Oc1ccccc1)N1CCOC1=O` (configuration not stated): the z-score is inactive: 1.26.

For the compound `O=[N+]([O-])c1cccc2n[nH]nc12`, the z-score is inactive: -0.18. Regarding `CC(=O)N1C2C3N(C(C)=O)C1C1N(C(C)=O)C(C(N1C(C)=O)N3C(C)=O)N2C(C)=O`, the z-score was inactive: 1.37. Under `COc1ccc(OP(C)(=O)Nc2ccc(Br)cc2)cc1` (configuration not stated) stands inactive: 0.2; under `CCN(CC)CC(O)COC(=O)C(O)(c1ccccc1)C1CCCCC1` (configuration not stated), inactive: 1.98; under `CC1CCN(C(=O)Oc2c(Cl)cc(Cl)c3cccnc23)CC1`, inactive: -1.07. `CN(C)C(=O)OCCc1n(C)cc[n+]1C`: the z-score is inactive: 1.28. On to `CP(=O)(Nc1ccc(Cl)cc1)Oc1ccc(F)cc1` (configuration not stated), for which the z-score was inactive: 0.5. For the compound `CC(C)(C)c1ccc(OP(C)(=O)O)cc1`, the z-score was inactive: 0.54. As to `CP(=O)(OC12CC3CC(CC(C3)C1)C2)OC12CC3CC(CC(C3)C1)C2`, the z-score is inactive: -0.66. For `CCOC(=O)c1ccc(NP(C)(=O)Oc2ccc(Cl)cc2)cc1` (configuration not stated), the z-score was inactive: -0.94.

Consider `COc1ccc(OP(C)(=O)Nc2ccccc2Br)cc1` (configuration not stated), for which the z-score is inactive: 0.17. Regarding `COc1ccccc1OP(C)(=O)Nc1ccc(C)c(C)c1` (configuration not stated), the z-score is inactive: 0.48.

Consider `CCOP(=O)(Nc1ccccc1)OCC`, for which the z-score is inactive: 0.49. Under `Cc1cc(SC(NC(=O)c2ccc(F)cc2)C(Cl)(Cl)Cl)ncn1` (configuration not stated) stands inactive: 0.55.

Take `CCN(N=Nc1nonc1N)c1nonc1N`: the z-score was inactive: 0.47. For `Cc1nc2ccc3ccccc3c2o1.O=[N+]([O-])c1cc([N+](=O)[O-])c(O)c([N+](=O)[O-])c1`, the z-score was inactive: -0.33.

Consider `CN(C)CCOC(=O)C(O)(c1ccccc1)C1CCCC1` (configuration not stated), for which the z-score was inactive: 0.05. Regarding `CN1CCCC(OC(=O)C(c2ccccc2)c2ccccc2)C1` (configuration not stated), the z-score was inactive: 0.86. `COc1ccc(OP(C)(=O)Nc2ccccn2)cc1` (configuration not stated): the z-score is inactive: 0.14. Regarding `CCc1ccc(OP(C)(=O)O)cc1`, the z-score is inactive: -0.15. With `COc1ccccc1OP(C)(=O)Nc1ccc(C)cc1C` (configuration not stated), the z-score was inactive: 0.33. Turning to `CP(=O)(Nc1ccccn1)Oc1ccccc1` (configuration not stated), the z-score was inactive: 1.1.

As for `Cc1c2non([O-])c-2c(C)[n+](=O)[n+]1[O-]`, the z-score is inactive: -1.4. The value for `O=C(NC(Sc1ccncn1)C(Cl)(Cl)Cl)c1ccccc1` (configuration not stated) was inactive: 0.76; that for `Oc1ccccc1CNc1ccccn1` was inactive: 0.77. In the case of `CC(C)CC(=O)NC(Sc1ccc(Cl)cc1)C(Cl)(Cl)Cl` (configuration not stated), the z-score is inactive: 0.18. The value for `Cc1c(NP(C)(=O)Oc2ccc(C(C)C)cc2)c(=O)n(-c2ccccc2)n1C` (configuration not stated) was inactive: 0.32; that for `CC(C)c1ccc(OP(C)(=O)Nc2ccc(SC(F)(F)F)cc2)cc1` (configuration not stated) was inactive: -0.45; that for `CP(=O)(Nc1ccccc1F)Oc1ccccc1` (configuration not stated) was inactive: 0.8. `O=P1(Nc2nc3ccc(Cl)cc3s2)COc2ccccc2O1` (configuration not stated): the z-score was inactive: 1.34. As to `O=C(OCCN1CCN(CCOCc2ccccc2)CC1)C(O)(c1ccccc1)c1ccccc1`, the z-score was inactive: 0.36. For the compound `CCOC(=O)c1ccc(NP(C)(=O)Oc2ccc(F)cc2)cc1` (configuration not stated), the z-score is inactive: -0.4. Under `CCOC(=O)NC(Sc1ccccc1)C(Cl)(Cl)Cl` (configuration not stated) stands inactive: 0.1. In the case of `CP(=O)(Nc1ccccc1)Oc1ccc(F)cc1` (configuration not stated), the z-score was inactive: -0.34.

On to `CCN(CC)CCCOC(=O)C(O)(c1ccccc1)C1CCCCC1` (configuration not stated), for which the z-score is inactive: -0.07. On to `CCC(=O)N1C2C3N(C(=O)CC)C1C1N(C(=O)CC)C(C(N1C(=O)CC)N3C(=O)CC)N2C(=O)CC`, for which the z-score was inactive: -0.43. Turning to `CC(=O)NC(SC(=S)N(CC(C)C)CC(C)C)C(Cl)(Cl)Cl` (configuration not stated), the z-score was inactive: -0.62. Consider `COC(=O)c1cc2c(s1)N=C(c1ccccc1)N(C)P2(=O)N1CCOCC1` (configuration not stated), for which the z-score is inactive: -0.2. Under `CN(C)CCOC(=O)C(O)(c1ccccc1)C1CCCCC1` (configuration not stated) stands inactive: 0.36. On to `COc1ccc(OP(C)(=O)Nc2cccc(Br)c2)cc1` (configuration not stated), for which the z-score was inactive: -0.78.

Take `O=C(OC1CN2CCC1CC2)c1cccc(Cl)c1` (configuration not stated): the z-score is inactive: 0.6.

For the compound `C(Cc1nn[nH]n1)Cc1nn[nH]n1`, the z-score is inactive: 0.4. `CC(=O)NC(SC(=S)N(C)C)C(Cl)(Cl)Cl` (configuration not stated): the z-score was inactive: -2.06. On to `c1nnnn1CCn1cnnn1`, for which the z-score was inactive: 0.53. As to `CCOP(C)(=S)SCC(=O)NC(C)(CC)C(=O)O` (configuration not stated), the z-score was inactive: 0.24.

Consider `CC(C)C(=O)NC(Sc1ccccc1)C(Cl)(Cl)Cl` (configuration not stated), for which the z-score was inactive: 0.32.

On to `O=P(Nc1nccs1)(c1ccccc1)c1ccccc1`, for which the z-score is inactive: 0.69. Regarding `Cc1ccccc1NP(C)(=O)Nc1ccccc1C`, the z-score is inactive: 0.13. `CP(=O)(Nc1ccc2c(c1)OCCO2)Oc1ccccc1` (configuration not stated): the z-score was inactive: -0.14. Consider `Clc1n[nH]nc1-c1nn[nH][15n]1`, for which the z-score is inactive: 0.43.

On to `O=P1(Nc2ccccn2)COc2ccccc2OC1`, for which the z-score was inactive: 0.52. As to `Cc1nc2ccc3ccccc3c2s1.O=[N+]([O-])c1cc([N+](=O)[O-])c(O)c([N+](=O)[O-])c1`, the z-score was inactive: -1.13. For the compound `Cc1nn(-c2ccccc2)c2c1P(=O)(N1CCOCC1)N(C)C(c1ccccc1)=N2` (configuration not stated), the z-score was inactive: 0.25. As to `COc1cc(C2NCCC3(OCCO3)C2(C)C)cc(OC)c1OC.O=[N+]([O-])c1cc([N+](=O)[O-])c(O)c([N+](=O)[O-])c1` (configuration not stated), the z-score is inactive: 0.89. Regarding `CP(=O)(Nc1ccc(SC(F)(F)F)cc1)Oc1ccccc1` (configuration not stated), the z-score was inactive: -0.55. With `O=P1(Nc2ccc(Br)cn2)COc2ccccc2OC1`, the z-score was inactive: -1.04. Under `Cc1ccc(OCC(=O)OC2CN3CCC2CC3)cc1` (configuration not stated) stands inactive: 0.47; under `O=P1(Nc2ncccn2)COc2ccccc2OC1`, inactive: 0.61.

Turning to `COc1ccccc1OP(C)(=O)Nc1c(C)cccc1C` (configuration not stated), the z-score was inactive: 0.42. In the case of `CN1CCCCC1COC(=O)C1(O)c2ccccc2CCc2ccccc21` (configuration not stated), the z-score was inactive: 0.46. Under `O=P(Nc1nccs1)(c1ccccc1)c1nc2ccccc2s1` (configuration not stated) stands inactive: -0.64. As for `CCOP1(=S)c2c(C)nn(CCC#N)c2N=C(c2ccccc2F)N1C` (configuration not stated), the z-score was inactive: -0.12. Regarding `CCOP1(=S)c2c(C)nn(CCC#N)c2N=C(c2ccc(F)cc2)N1C` (configuration not stated), the z-score was inactive: 0.62. As for `CC1=NCCc2c1[nH]c1ccccc21.O=[N+]([O-])c1cc([N+](=O)[O-])c(O)c([N+](=O)[O-])c1`, the z-score was inactive: 0.37. Consider `O=[N+]([O-])c1ccc2c(c1)nnn2O`, for which the z-score is inactive: 0.67.

For the compound `Cc1cc(C)cc(OP(C)(=O)Nc2ccc(C)cc2C)c1` (configuration not stated), the z-score is inactive: -0.27. On to `Cc1cccc(OCC(=O)OC2CN3CCC2CC3)c1` (configuration not stated), for which the z-score is inactive: 0.23. Turning to `CCOC(=O)c1ccc(NP(C)(=O)Oc2cc(C)cc(C)c2)cc1` (configuration not stated), the z-score was inactive: 0.16.

Consider `CCOP(=O)(Nc1cccc2ccccc12)OCC`, for which the z-score is inactive: -0.29. `Cc1ccc(NCCc2c([N+](=O)[O-])cc([N+](=O)[O-])cc2[N+](=O)[O-])cc1`: the z-score was inactive: -1.16.

Regarding `Cc1cc(C)cc(OP(C)(=O)Nc2ccccn2)c1` (configuration not stated), the z-score was inactive: -0.42.

For the compound `Cc1ccc(C)c(NP(C)(=O)Oc2ccccc2)c1` (configuration not stated), the z-score was inactive: -0.32. Regarding `Cc1c2c(nc3ccccc13)SC(C(Cl)Cl)C2` (configuration not stated), the z-score was inactive: -1.31. In the case of `O=C(OC1CN2CCC1CC2)C12CC3CC(CC(C3)C1)C2` (configuration not stated), the z-score was inactive: -0.86. On to `CC(C)(C)c1ccc(OP(C)(=O)Nc2ccc(SC(F)(F)F)cc2)cc1` (configuration not stated), for which the z-score was inactive: -0.69. As for `Cc1ccc2nc3c(c(C)c2c1)CC(C(Cl)Cl)S3` (configuration not stated), the z-score is inactive: -1.31.

Consider `O=[N+]([O-])c1cc([N+](=O)[O-])c(-c2ccn[nH]2)s1`, for which the z-score was inactive: -0.74. The value for `COc1ccc(OP(C)(=O)Nc2cccc(F)c2)cc1` (configuration not stated) was inactive: 0.41; that for `CCN(CC)C(=S)SC(NC=O)C(Cl)(Cl)Cl` (configuration not stated) was inactive: -1.67. `ClCCSc1nnc(-c2cccnc2)o1`: the z-score is inactive: 2.51. Take `CCOC(=O)c1ccc(NP(C)(=O)Oc2ccccc2)cc1` (configuration not stated): the z-score is inactive: -0.05. On to `Cc1ccc(NP(C)(=O)Oc2ccccc2)c(C)c1` (configuration not stated), for which the z-score was inactive: 0.85.

For the compound `COc1ccccc1OP(C)(=O)Nc1ccc(C)cc1` (configuration not stated), the z-score is inactive: 0.69. `Cc1cc(SC(NC(=O)c2ccccc2)C(Cl)(Cl)Cl)nc(C(C)C)n1` (configuration not stated): the z-score is inactive: -0.13. As for `CP(=O)(Nc1ccccc1Br)Oc1ccccc1` (configuration not stated), the z-score is inactive: 0.37. The value for `CP(=S)(Nn1cnnc1)Oc1ccccc1` (configuration not stated) was inactive: 0.97; that for `Cc1cc(C)cc(OP(C)(=O)Nc2ccc(SC(F)(F)F)cc2)c1` (configuration not stated) was inactive: -0.81; that for `O=C(COc1ccccc1)OC1CN2CCC1CC2` (configuration not stated) was inactive: -0.64. Under `CP(=O)(NC(=O)Nc1ccccc1)Oc1ccccc1` (configuration not stated) stands inactive: 0.36. Under `Cc1cccc(C)c1OP(C)(=O)Nc1ccc(SC(F)(F)F)cc1` (configuration not stated) stands inactive: -1.66; under `COP1(=S)c2c(C)nn(CCC#N)c2N=C(c2ccc(F)cc2)N1C` (configuration not stated), inactive: 0.34. Consider `CCC(C)N(CC(C)C)C(=S)SC(NC(C)=O)C(Cl)(Cl)Cl` (configuration not stated), for which the z-score was inactive: -1.06.

For `CP(=O)(Nc1ccccn1)Oc1ccc(Cl)cc1` (configuration not stated), the z-score was inactive: -0.55. On to `CCOP(C)(=S)SCC(=O)NC(C)C(=O)O` (configuration not stated), for which the z-score is inactive: 0.83. On to `CCOC(=O)c1ccc(NP(C)(=O)Oc2ccc(OC)cc2)cc1` (configuration not stated), for which the z-score is inactive: -0.42.

The record behind these values is PubChem BioAssay AID817 (Emory University Molecular Libraries Screening Center, 2007).
